The NIST ThermoML archive (doi:10.1016/j.fluid.2015.10.024)
± gives the expanded uncertainty stated by the source.

Tests used:
[1] = Crystal; DTA
[2] = Molar enthalpy of transition or fusion; conditions: Crystal; DSC

For `CN1C(=O)CN=C(c2ccccc2)c2cc(Cl)ccc21`, the Normal melting temperature [1] was 130.97 ± 0.39 °C and the “Molar enthalpy of transition or fusion” value [2] was 6.25 ± 0.143 kcal/mol.
